The numbers were not newly measured in patent US8466203B2, “Method of stabilizing human eye tissue by reaction with nitrite and related agents such as nitro compounds” (priority 2006, dated 2013), which cites them from elsewhere.

The data set relates to corneal endothelial cell (primary). The following applies: 12 hrs exposure, in serum free medium, bovine primary, trypan blue, Naor 2001; cited from earlier work.

Regarding Providone iodine, the Toxic concentration result is recorded as “(0.1%) in”.
